Experiments:
HEp-2 cells = assay: Cytotoxicity vs HEp-2 cells (colony formation, % survival); settings: F3 methyl dC and H4 U (FIG. 1)
HSV-2 = assay: Antiviral activity vs HSV-2 in HEp-2 cells (plaque assay in BHK cells); assay type: cell-based; settings: F3 methyl dC and F3 dT, with and without H4 U (FIG. 2)
Protocol: The culture medium containing the nucleoside analogs at varying concentrations are added to the infected cultures. In the case of HEp-2 cells which contain high deaminase levels, H4 U is incorporated into the medium. At 48 hours, virus is harvested from the cultures by freezing and thawing. The virus produced from each culture is titred by plaque assay in BHK cells. By using this protocol the antiviral effectiveness of F3 methyl dC can be compared directly with the effectiveness of other antiviral agents. Furthermore, by including H4 U in the medium, the effectiveness of F3 methyl dC can be determined without deamination at the nucleoside level.

`Nc1nc(=O)n([C@H]2C[C@H](O)[C@@H](CO)O2)cc1C(F)(F)F` [F3 methyl dC, 5-trifluoromethyl-2'-deoxycytidine] was tested, and the “enhancement of survival by H4 U” value (HEp-2 cells) was “dramatic enhancement of survival” and the “antiviral potency against HSV-2” value (HSV-2) was “equally potent antiviral agents”.
For `O=c1[nH]c(=O)n([C@H]2C[C@H](O)[C@@H](CO)O2)cc1C(F)(F)F` [F3 dT, 5-trifluoromethyl-2'-deoxyuridine], the “antiviral potency against HSV-2” value (HSV-2) was “equally potent antiviral agents”.

From patent US4210638A, “Antiviral composition and method of treating virus diseases” (PCR, Inc., priority 1978, dated 1980)
